Source: patent publication US20120082623A1, “SHH Regulation and Methods Thereof” (priority 2009, published 2012)
Like-named read-outs stand apart in the source and are kept apart here.

System: Shh-nLZ C/C; Dat-Cre mutant animals
Conditions: mutant animals compared to litter controls

## CC(N)Cc1ccccc1 (centres unmarked) [Amphetamine]
8 weeks of age
  elicited DA mobilization (increased locomotion upon injection): undetectable
28 days of age
  elicited DA mobilization (increased locomotion upon injection): normal
